# Laboratory results taken from patent publication US20260373262 (published 2026).
# B1: hLFTT-1 VH4/VL5 (antibody, V domains shown)
# VH: QIQLVQSGSELKKPGASVKVSCKASGYTFTTYGMSWVRQAPGQGLKWMGWIYTYSGVPTYADDLTGRFVFSLDTSVSTAYLQISSLKAEDTATYYCARVRDGYYRYAMDYWGRGTLVTVSS
# VL: DIQMTQSPSSLSVSVGDRVTITCKASQDINRYIAWYQQQPGKAPKLLIHFTSTLQSGVPSRFSGSGSGTDFTFTISSLQPEDIATYYCLQYDDLRTFGQGTKLEIK
# B2: LFTT-1 VH5/VL3 (antibody, V domains shown)
# VH: B1 VH with K46E
# VL: B1 VL with V58I, T69R
# B3: LFTT-1 VH5/VL4 (antibody, V domains shown)
# VH: B1 VH with K46E
# VL: B1 VL with T69R
# Assays:
# HLA-G1 (cell-expressed) [1] = molecular target: T1, HLA-G1 (cell-expressed) (human, UniProt P17693)
# HLA-G (NM_002127.5) = HLA-G (NM_002127.5) (human, UniProt P17693); test: FACS
# HLA-G1 (cell-expressed) [2] = molecular target: T1, HLA-G1 (cell-expressed); test: FACS
Binder,Kd (HLA-G1 (cell-expressed) [1]),EC50 (HLA-G (NM_002127.5)),EC50 (HLA-G1 (cell-expressed) [2])
B1,2.76 nM,0.35 µg/mL,0.05 µg/mL
B2,4.4 nM,,
B3,3.31 nM,,

# Where a chain is given by its changes, count along the chain named.
